Data on 1 molecule can be found in PMC8654832, “5,6-diiodo-1H-benzotriazole: new TBBt analogue that minutely affects mitochondrial activity” (Scientific Reports, 2021).

This series has as its system mitochondrial inner membrane potential (ΔΨ). The series can be described thus: Mitochondrial inner membrane potential, Rhodamine 123 fluorescence quenching in isolated mitochondria. The text has this:
In response to variations in ΔΨ this dye accumulates proportionally inside the mitochondrial matrix, where its fluorescence is quenched, thus fluorescence changes reflect the changes in the IM potential[33],[34]. […] All the data were normalized relative to the fluorescence intensity after addition CCCP (set to 1).
To quantify the effect of ligand addition we have compared the ligand concentrations required to recover 50% of the initial fluorescence drop (dotted line), i.e. the average of value after addition of EtOH and fully decoupled ΔΨ.
At the end of each experiment the carbonyl cyanide-m-chlorophenyl hydrazone (CCCP, the IM potential uncoupler) was added at 4 μM for the normalization.

Take `Brc1c(Br)c(Br)c2[nH]nnc2c1Br` [TBBt, 4,5,6,7-tetrabromo-1H-benzotriazole]: the “ligand concentration required to recover 50% of the initial fluorescence drop” value (Rhodamine 123, yeast mitochondria energized with EtOH, normalized to CCCP) was “less than 2 µM”. Further, the “ligand concentration at which relative fluorescence c.a. 0.95 was reached” value (Rhodamine 123, yeast mitochondria, 1 = fully uncoupled (CCCP)) was approximately 4 µM.
